Results: patent US20050165030A1, “Pharmaceutical compositions comprising a multifunctional phosphodiesterase inhibitor and an adenosine uptake inhibitor” (priority 2001, published 2005)

Tested on: adenosine uptake into washed human platelets
Test: cells
Conditions: Platelet, read-out: IC50 of adenosine uptake inhibition

Work on `O=C1CCc2cc(OCCCCc3nnnn3C3CCCCC3)ccc2N1` [cilostazol, 6-[4-(1-cyclohexyl-1H-tetrazol-5yl)butoxy]-3,4-dihydro-2(1H)-quinolinone] yielded an IC50 of ~7 µM.
